Chains of the proteins cited; added tags and fusions are not shown. Residues count along the entry.
UniProt P23219, 24-599: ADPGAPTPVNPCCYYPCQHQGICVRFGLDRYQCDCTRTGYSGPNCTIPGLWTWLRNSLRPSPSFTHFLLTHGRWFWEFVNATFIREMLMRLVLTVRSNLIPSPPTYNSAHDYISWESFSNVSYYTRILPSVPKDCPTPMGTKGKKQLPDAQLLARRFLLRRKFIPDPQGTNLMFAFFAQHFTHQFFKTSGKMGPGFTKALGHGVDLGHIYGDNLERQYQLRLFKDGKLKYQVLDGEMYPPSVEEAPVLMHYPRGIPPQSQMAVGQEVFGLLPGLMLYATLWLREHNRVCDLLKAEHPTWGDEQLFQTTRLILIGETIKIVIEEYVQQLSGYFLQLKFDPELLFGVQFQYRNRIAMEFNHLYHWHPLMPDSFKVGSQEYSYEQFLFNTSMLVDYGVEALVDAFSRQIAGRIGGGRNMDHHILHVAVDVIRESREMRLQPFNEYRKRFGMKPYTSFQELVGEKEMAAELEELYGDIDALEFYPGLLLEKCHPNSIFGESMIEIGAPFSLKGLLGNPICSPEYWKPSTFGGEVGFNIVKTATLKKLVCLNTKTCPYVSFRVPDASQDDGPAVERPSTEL

In patent US5817700A, “Bisaryl cyclobutenes derivatives as cyclooxygenase inhibitors” (Merck Frosst Canada, Inc., priority 1997, dated 1998):

Target: T1, COX-1 (U-937 cells) (Homo sapiens, UniProt P23219)
T1 construct: human U-937 cells (which specifically express COX-1); endogenous in cells; host or cells: human U-937 cells
Assay: Whole cell assay for COX-1 in human U-937 cells (inhibition of PGE2 production)
Type: cell-based
Conditions: n given per cell

- IC50: 520 nM
SMILES: CC1(C)C(=O)C(c2ccccc2)=C1c1ccc(S(C)(=O)=O)cc1 [Example 16, 4,4-Dimethyl-3-(4-methylsulfonylphenyl)-2-phenyl-2-cyclobuten-1-one]
